# Measurements reported in patent US7759499B2, “Compounds as inhibitors of hepatitis C virus NS3 serine protease” (Schering Corporation, priority 2004, dated 2010).
# Protein sequences, listed by entry. Tags and fused reporters are not part of them. Residues count along the entry.
# UniProt P27958, 1027-1657: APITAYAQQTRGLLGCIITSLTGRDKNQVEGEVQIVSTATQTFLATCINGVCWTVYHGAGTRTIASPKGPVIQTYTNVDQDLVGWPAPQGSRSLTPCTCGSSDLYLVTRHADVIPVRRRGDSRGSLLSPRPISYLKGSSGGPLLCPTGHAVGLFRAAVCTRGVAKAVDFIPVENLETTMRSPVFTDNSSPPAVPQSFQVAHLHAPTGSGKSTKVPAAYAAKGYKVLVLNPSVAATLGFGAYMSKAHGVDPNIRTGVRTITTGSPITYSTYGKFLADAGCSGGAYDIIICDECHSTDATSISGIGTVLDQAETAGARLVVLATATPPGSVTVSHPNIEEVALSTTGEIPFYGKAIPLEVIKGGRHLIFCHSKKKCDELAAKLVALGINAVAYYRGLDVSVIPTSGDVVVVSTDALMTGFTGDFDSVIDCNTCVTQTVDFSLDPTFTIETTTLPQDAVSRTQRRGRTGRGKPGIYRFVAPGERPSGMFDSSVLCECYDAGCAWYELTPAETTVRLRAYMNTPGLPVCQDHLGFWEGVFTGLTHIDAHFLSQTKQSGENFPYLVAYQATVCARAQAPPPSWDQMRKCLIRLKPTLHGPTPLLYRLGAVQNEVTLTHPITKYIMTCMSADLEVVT
# UniProt P27958, 1658-1711: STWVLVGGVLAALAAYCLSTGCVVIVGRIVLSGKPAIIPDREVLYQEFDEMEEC
# Biological target: Recombinant heterodimeric HCV NS3/NS4A protease (strain 1a) (Hepatitis C virus genotype 1a, UniProt P27958)
# Assay: Spectrophotometric assay for HCV protease inhibitory activity
# Assay type: biochemical
# Conditions: Table 2, range
row,SMILES,Ki [nM]
1,CC(C)[C@@H](CN(CC1CC1)S(=O)(=O)c1ccccc1)NC(=O)N[C@H](C(=O)N1C[C@H]2[C@@H]([C@H]1C(=O)NC(CC1CCC1)C(=O)C(N)=O)C2(C)C)C(C)(C)C (stereo partly drawn) [Compound 11011],≤ 75
2,C=CCNC(=O)C(=O)C(CC1CC1)NC(=O)[C@@H]1[C@@H]2[C@H](CN1C(=O)[C@@H](NC(=O)N[C@H](CN(CC1CC1)S(=O)(=O)c1ccccc1)C(C)C)C(C)(C)C)C2(C)C (stereo partly drawn) [Compound 11012],≤ 75
3,C=CCNC(=O)C(=O)C(CC1CC1)NC(=O)[C@@H]1[C@@H]2[C@H](CN1C(=O)[C@@H](NC(=O)NC1(CN(C)S(=O)(=O)c3ccccc3)CCCCC1)C(C)(C)C)C2(C)C (stereo partly drawn) [Compound 11013],≤ 75
4,CC(C)(C)[C@H](NC(=O)NC1(Cc2ccccn2)CCCN(S(C)(=O)=O)C1)C(=O)N1C[C@H]2[C@@H]([C@H]1C(=O)NC(CC1CC1)C(=O)C(N)=O)C2(C)C (stereo partly drawn) [Compound 11014],> 250
5,C=CCNC(=O)C(=O)C(CCCC)NC(=O)[C@@H]1[C@@H]2[C@H](CN1C(=O)[C@@H](NC(=O)NC1(CN(C)S(=O)(=O)c3ccccc3)CCCCC1)C(C)(C)C)C2(C)C (stereo partly drawn) [Compound 11015],≤ 75
6,CC(C)(C)[C@H](NC(=O)NC1(Cc2ccccn2)CCCN(S(C)(=O)=O)C1)C(=O)N1C[C@H]2[C@@H]([C@H]1C(=O)NC(CC1CC1)C(=O)C(N)=O)C2(Cl)Cl (stereo partly drawn) [Compound 11016],> 250
7,CN(CC(C)(C)NC(=O)N[C@H](C(=O)N1C[C@H]2[C@@H]([C@H]1C(=O)NC(CC1CC1)C(=O)C(N)=O)C2(C)C)C(C)(C)C)S(C)(=O)=O (stereo partly drawn) [Compound 11017],75 to 250
8,C=CCNC(=O)C(=O)C(CC1CC1)NC(=O)[C@@H]1[C@@H]2[C@H](CN1C(=O)[C@@H](NC(=O)N[C@H](CN(C)S(=O)(=O)c1ccccc1)C(C)C)C(C)(C)C)C2(C)C (stereo partly drawn) [Compound 11018],≤ 75
9,CC(C)[C@@H](CN(C)S(C)(=O)=O)NC(=O)N[C@H](C(=O)N1C[C@H]2[C@@H]([C@H]1C(=O)NC(CC1CC1)C(=O)C(N)=O)C2(C)C)C(C)(C)C (stereo partly drawn) [Compound 11019],≤ 75
10,CC(C)[C@@H](CN(C)S(C)(=O)=O)NC(=O)N[C@H](C(=O)N1C[C@H]2[C@@H]([C@H]1C(=O)NC(CC1CCC1)C(=O)C(N)=O)C2(C)C)C(C)(C)C (stereo partly drawn) [Compound 11020],≤ 75
11,C=CCNC(=O)C(=O)C(CC1CC1)NC(=O)[C@@H]1[C@@H]2[C@H](CN1C(=O)[C@@H](NC(=O)N[C@H](CN(C)S(C)(=O)=O)C(C)C)C(C)(C)C)C2(C)C (stereo partly drawn) [Compound 11021],≤ 75
12,CC(C)(C)[C@H](NC(=O)NC1CCCN(S(=O)(=O)C2CC2)C1)C(=O)N1C[C@H]2[C@@H]([C@H]1C(=O)NC(CC1CCC1)C(=O)C(N)=O)C2(C)C (stereo partly drawn) [Compound 11022],75 to 250
13,CC(C)(C)[C@H](NC(=O)NC1CCCN(S(=O)(=O)c2cccs2)C1)C(=O)N1C[C@H]2[C@@H]([C@H]1C(=O)NC(CC1CCC1)C(=O)C(N)=O)C2(C)C (stereo partly drawn) [Compound 11023],75 to 250
14,CC(C)(C)[C@H](NC(=O)NC1CCCN(S(=O)(=O)c2ccccc2)C1)C(=O)N1C[C@H]2[C@@H]([C@H]1C(=O)NC(CC1CCC1)C(=O)C(N)=O)C2(C)C (stereo partly drawn) [Compound 11024],75 to 250
15,C=CCNC(=O)C(=O)C(CC1CC1)NC(=O)[C@@H]1[C@@H]2[C@H](CN1C(=O)[C@@H](NC(=O)NC1(CN(C)S(C)(=O)=O)CCCCC1)C(C)(C)C)C2(C)C (stereo partly drawn) [Compound 11025],≤ 75
16,CN(CC1(NC(=O)N[C@H](C(=O)N2C[C@H]3[C@@H]([C@H]2C(=O)NC(CC2CC2)C(=O)C(N)=O)C3(C)C)C(C)(C)C)CCCCC1)S(C)(=O)=O (stereo partly drawn) [Compound 11026],≤ 75
17,CN(CC1(NC(=O)N[C@H](C(=O)N2C[C@H]3[C@@H]([C@H]2C(=O)NC(CC2CCC2)C(=O)C(N)=O)C3(C)C)C(C)(C)C)CCCCC1)S(C)(=O)=O (stereo partly drawn) [Compound 11027],≤ 75
18,CN(C[C@@H](NC(=O)N[C@H](C(=O)N1C[C@H]2[C@@H]([C@H]1C(=O)NC(CC1CCC1)C(=O)C(N)=O)C2(C)C)C(C)(C)C)C(C)(C)C)S(=O)(=O)C1CC1 (stereo partly drawn) [Compound 11028],≤ 75
19,CN(C[C@@H](NC(=O)N[C@H](C(=O)N1C[C@H]2[C@@H]([C@H]1C(=O)NC(CC1CCC1)C(=O)C(N)=O)C2(C)C)C(C)(C)C)C(C)(C)C)S(=O)(=O)c1ccccc1 (stereo partly drawn) [Compound 11029],≤ 75
20,C=CCNC(=O)C(=O)C(CCC(F)(F)F)NC(=O)[C@@H]1[C@@H]2[C@H](CN1C(=O)[C@@H](NC(=O)N[C@H](CN(C)S(C)(=O)=O)C(C)C)C(C)(C)C)C2(C)C (stereo partly drawn) [Compound 11030],≤ 75
21,C=CCNC(=O)C(=O)C(CCCC)NC(=O)[C@@H]1[C@@H]2[C@H](CN1C(=O)[C@@H](NC(=O)N[C@H](CN(C)S(C)(=O)=O)C(C)C)C(C)(C)C)C2(C)C (stereo partly drawn) [Compound 11031],≤ 75
22,CN(C[C@@H](NC(=O)N[C@H](C(=O)N1C[C@H]2[C@@H]([C@H]1C(=O)NC(CC1CCC1)C(=O)C(N)=O)C2(C)C)C(C)(C)C)C(C)(C)C)S(=O)(=O)c1cccs1 (stereo partly drawn) [Compound 11032],≤ 75
23,C=CCNC(=O)C(=O)C(CCCC)NC(=O)[C@@H]1[C@@H]2[C@H](CN1C(=O)[C@@H](NC(=O)N[C@H](CN(C)S(=O)(=O)c1ccccc1)C(C)C)C(C)(C)C)C2(C)C (stereo partly drawn) [Compound 11033],≤ 75

row,SMILES,Ki [nM]
1,C=CCNC(=O)C(=O)C(CC1CC1)NC(=O)[C@@H]1[C@@H]2[C@H](CN1C(=O)[C@@H](NC(=O)N[C@H](CN(C)S(=O)(=O)C1CC1)C(C)(C)C)C(C)(C)C)C2(C)C (stereo partly drawn) [Compound 11034],≤ 75
2,C=CCNC(=O)C(=O)C(CC1CC1)NC(=O)[C@@H]1[C@@H]2[C@H](CN1C(=O)[C@@H](NC(=O)N[C@H](CN(C)S(=O)(=O)Cc1ccccc1)C(C)(C)C)C(C)(C)C)C2(C)C (stereo partly drawn) [Compound 11035],≤ 75
3,CC(C)[C@@H](CN(C)S(=O)(=O)c1cccs1)NC(=O)N[C@H](C(=O)N1C[C@H]2[C@@H]([C@H]1C(=O)NC(CC1CCC1)C(=O)C(N)=O)C2(C)C)C(C)(C)C (stereo partly drawn) [Compound 11036],≤ 75
4,C=CCNC(=O)C(=O)C(CC1CC1)NC(=O)[C@@H]1[C@@H]2[C@H](CN1C(=O)[C@@H](NC(=O)N[C@H](CN(C)S(=O)(=O)C1CC1)C(C)C)C(C)(C)C)C2(C)C (stereo partly drawn) [Compound 11037],75 to 250
5,CC(C)[C@@H](CN(C)S(=O)(=O)C1CC1)NC(=O)N[C@H](C(=O)N1C[C@H]2[C@@H]([C@H]1C(=O)NC(CC1CCC1)C(=O)C(N)=O)C2(C)C)C(C)(C)C (stereo partly drawn) [Compound 11038],≤ 75
6,CN(C[C@@H](NC(=O)N[C@H](C(=O)N1C[C@H]2[C@@H]([C@H]1C(=O)NC(CC1CCC1)C(=O)C(N)=O)C2(C)C)C(C)(C)C)C(C)(C)C)S(C)(=O)=O (stereo partly drawn) [Compound 11039],≤ 75
7,C=CCNC(=O)C(=O)C(CC1CC1)NC(=O)[C@@H]1[C@H]2CC(C)(C)O[C@H]2CN1C(=O)[C@@H](NC(=O)N[C@H](CN(C)S(C)(=O)=O)C(C)(C)C)C1CCCCC1 (stereo partly drawn) [Compound 11040],75 to 250
8,C=CCNC(=O)C(=O)C(CC1CC1)NC(=O)[C@@H]1[C@@H]2[C@H](CN1C(=O)[C@@H](NC(=O)N[C@H](CN(C)S(=O)(=O)c1ccccc1)C(C)(C)C)C(C)(C)C)C2(C)C (stereo partly drawn) [Compound 11041],≤ 75
9,C=CCNC(=O)C(=O)C(CC1CC1)NC(=O)[C@@H]1[C@@H]2[C@H](CN1C(=O)[C@@H](NC(=O)N[C@H](CN(C)S(C)(=O)=O)C(C)(C)C)C(C)(C)C)C2(C)C (stereo partly drawn) [Compound 11042],≤ 75
10,C=CCNC(=O)C(=O)C(CCC(F)(F)F)NC(=O)[C@@H]1[C@@H]2[C@H](CN1C(=O)[C@@H](NC(=O)N[C@H](CN(C)S(C)(=O)=O)C(C)(C)C)C(C)(C)C)C2(C)C (stereo partly drawn) [Compound 11043],≤ 75
11,CC(C)[C@H](NC(=O)N[C@H](C(=O)N1C[C@H]2[C@@H]([C@H]1C(=O)NC(CC1CC1)C(=O)C(N)=O)C2(C)C)C(C)(C)C)C(=O)N(C)S(=O)(=O)c1ccccc1 (stereo partly drawn) [Compound 11045],≤ 75
12,CC(C)[C@@H](CN(C)S(=O)(=O)c1ccccc1)NC(=O)N[C@H](C(=O)N1C[C@H]2[C@@H]([C@H]1C(=O)NC(CC1CC1)C(=O)C(N)=O)C2(C)C)C1CCCCC1 (stereo partly drawn) [Compound 11046],≤ 75
13,C=CCNC(=O)C(=O)C(CC1CC1)NC(=O)[C@@H]1[C@@H]2[C@H](CN1C(=O)[C@@H](NC(=O)N[C@H](CN(C)S(=O)(=O)c1ccccc1)C(C)C)C1CCCCC1)C2(C)C (stereo partly drawn) [Compound 11047],≤ 75
14,CN(C[C@@H](NC(=O)N[C@H](C(=O)N1C[C@H]2[C@@H]([C@H]1C(=O)NC(CC1CCC1)C(=O)C(N)=O)C2(C)C)C1CCCCC1)C(C)(C)C)S(C)(=O)=O (stereo partly drawn) [Compound 11048],≤ 75
15,C=CCNC(=O)C(=O)C(CC1CC1)NC(=O)[C@@H]1[C@@H]2[C@H](CN1C(=O)[C@@H](NC(=O)N[C@H](CN(C)S(C)(=O)=O)C(C)(C)C)C1CCCCC1)C2(C)C (stereo partly drawn) [Compound 11049],≤ 75
16,CC(C)[C@@H](CN(C)S(=O)(=O)c1ccccc1)NC(=O)N[C@H](C(=O)N1C[C@H]2[C@@H]([C@H]1C(=O)NC(CC1CCC1)C(=O)C(N)=O)C2(C)C)C1CCCCC1 (stereo partly drawn) [Compound 11050],≤ 75
17,C=CCNC(=O)C(=O)C(CCC)NC(=O)[C@@H]1[C@@H]2[C@H](CN1C(=O)[C@@H](NC(=O)N[C@H](CN(C)S(C)(=O)=O)C(C)C)C(C)(C)C)C2(C)C (stereo partly drawn) [Compound 11052],≤ 75
18,CN(C[C@@H](NC(=O)N[C@H](C(=O)N1C[C@H]2[C@@H]([C@H]1C(=O)NC(CC1CCC1)C(=O)C(N)=O)C2(C)C)C1CCCCC1)C(C)(C)C)S(=O)(=O)c1ccccc1 (stereo partly drawn) [Compound 11053],≤ 75
19,C=CCNC(=O)C(=O)C(CC1CC1)NC(=O)[C@@H]1[C@@H]2[C@H](CN1C(=O)[C@@H](NC(=O)N[C@H](CN(C)S(=O)(=O)C1CC1)C(C)(C)C)C1CCCCC1)C2(C)C (stereo partly drawn) [Compound 11054],≤ 75
20,C=CCNC(=O)C(=O)C(CC1CC1)NC(=O)[C@@H]1[C@@H]2[C@H](CN1C(=O)[C@@H](NC(=O)N[C@H](CN(C)S(=O)(=O)c1ccccc1)C(C)(C)C)C1CCCCC1)C2(C)C (stereo partly drawn) [Compound 11055],≤ 75
21,CN(C[C@@H](NC(=O)N[C@H](C(=O)N1C[C@@H]2OC(C)(C)C[C@@H]2[C@H]1C(=O)NC(CC1CCC1)C(=O)C(N)=O)C1CCCCC1)C(C)(C)C)S(C)(=O)=O (stereo partly drawn) [Compound 11057],≤ 75
22,C=CCNC(=O)C(=O)C(CCC(F)(F)F)NC(=O)[C@@H]1[C@@H]2[C@H](CN1C(=O)[C@@H](NC(=O)N[C@H](CN(C)S(C)(=O)=O)C(C)(C)C)C1CCCCC1)C2(C)C (stereo partly drawn) [Compound 11058],≤ 75
